Apparent affinities of Ab-14 variants for a coronavirus HR2 peptide

The measurements come from Li et al. 2023 (doi:10.1038/s41467-023-39022-2) through the FLAb antibody collection.

Target peptide (SARS-CoV-2 spike, HR2 region): PDVDLGDISGINAS

The variants keep the heavy chain, the linker and the frameworks of Ab-14 (scFv order VH, a 15-residue (Gly4Ser)3 linker, VL).
VH: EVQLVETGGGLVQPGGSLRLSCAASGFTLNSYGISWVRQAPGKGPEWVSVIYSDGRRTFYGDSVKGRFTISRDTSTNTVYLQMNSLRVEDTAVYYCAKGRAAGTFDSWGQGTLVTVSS
VL: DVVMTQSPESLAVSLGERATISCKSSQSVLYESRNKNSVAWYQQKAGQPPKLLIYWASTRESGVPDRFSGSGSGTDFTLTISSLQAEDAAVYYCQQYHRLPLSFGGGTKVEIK

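This is the validation round: designs drawn from the data on random variants, tested in the same kind of assay. Several design methods are mixed in this list. AlphaSeq pools MATa yeast showing the antibodies with MATalpha yeast showing the peptide. Pairs that bind mate more often; barcode pairs of the diploids are counted by sequencing. Read counts were normalised to the haploid input and turned into Kd by a linear fit to BCL2-family pairs of known affinity, for each replicate. There are six technical replicates.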

Each variant is given by its three light chain CDRs, as the data file delimits them; those of the parent are KSSQSVLYESRNKNSVA, WASTRES, QQYHRLPLS.
Numbers give log10(Kd / nM), so 0 is 1 nM and 3 is 1 µM. Smaller is tighter.
Where no diploid with the target was found in that replicate, the entry reads "n.d.": below detection, most likely a poor binder, though not proof of it.

CDR-L1	CDR-L2	CDR-L3	log10 Kd (nM) by replicate	empty controls
KSSQSVLYESRKKNSVA	WASTRES	QQYHRLPLS	n.d. / 4.03 / 1.57 / n.d. / 2.63 / n.d.	0 of 18
KFSQSNLYEDRNQNSVA	NASQREQ	QDYHRLPLS	0.14 / 0.38 / 0.44 / 0.40 / 0.40 / 0.32	1 of 18 (1.90)
KLSQSWLYEDRNKNSVA	GASTRES	QQYHRLPLS	-0.25 / -0.27 / -0.36 / -0.49 / -0.16 / -0.28	0 of 18
KSSQSVWYESRNKNSVA	WASTGES	QQYHRLPLD	n.d. / 2.95 / n.d. / n.d. / 2.62 / 2.43	1 of 18 (2.37)
KSSQSELYESRNKNSVA	DASTRES	QQYHRLPLW	0.33 / 0.20 / -0.11 / 0.08 / 0.09 / 0.14	0 of 18
MFEEYQSEGGANNNNVA	DHECGIR	QQYYRLPLT	n.d. / n.d. / n.d. / n.d. / n.d. / n.d.	4 of 18 (2.03)
KLASVTGTEKVHGNNVA	EMETRER	QQYNRLPLS	-0.04 / -0.18 / -0.26 / -0.56 / -0.20 / -0.05	1 of 18 (2.72)
KSSQQVLYESRWKNSVA	SASTRES	QQYARLPLS	0.62 / 0.69 / 0.72 / 0.55 / 0.87 / 0.78	1 of 18 (2.61)
TIGQTLMQGIRNRSNVA	EVSQRLN	QQYDRLPLA	1.15 / 1.28 / 0.96 / 1.27 / 1.16 / 1.42	0 of 18
KSSQSFLYESRNFNSVA	HASTRES	QQYHRLPLS	0.28 / 0.65 / 0.40 / 0.51 / 0.10 / 0.29	1 of 18 (2.42)
TISQITSLFTQNINNVA	EVSTRLN	QQYDRLPLS	1.11 / 1.14 / 0.80 / 0.72 / 0.59 / 0.70	2 of 18 (3.20)
HSSWVVLYESRNKNSVA	NASTRES	GQYHRLPLS	1.49 / 1.08 / 1.78 / 1.45 / 1.39 / 1.42	0 of 18
KSGQGVLYESRNQNSVA	GASLRES	QQYHRLPLS	0.39 / 0.24 / 0.38 / 0.36 / 0.50 / 0.20	1 of 18 (2.71)
KMSQSVCYNSRNKNSVA	GASTRES	QQYHRLPLS	0.18 / 0.46 / 0.58 / 0.17 / 0.23 / 0.57	2 of 18 (2.77)
RIRESMFYSHEGRRNIA	QASIREI	QQYSQLPLF	0.18 / 0.27 / -0.22 / -0.09 / -0.23 / 0.20	0 of 18
KCSQAVLYEFVNKNSVA	DASTRES	QQYHRLPLS	1.32 / 1.27 / 1.25 / 0.94 / 1.03 / 1.32	0 of 18
KQSPQDLYQSRNKNQVA	DASTRES	QQYHRLPLS	-0.07 / 0.05 / -0.32 / -0.21 / -0.11 / -0.04	1 of 18 (3.24)
SISQFMKSLSAHINNVA	DMTNREN	QQYDRLPLS	n.d. / n.d. / n.d. / 1.71 / n.d. / 1.06	0 of 18
KLSQSEQYESRNKNSVA	NASQRES	QQYHRLPLS	-0.35 / -0.28 / -0.08 / -0.26 / -0.31 / 0.02	0 of 18
KSAQSWLYESRNKNSVA	HASTREQ	QQYHRLPLS	0.48 / 0.84 / 1.37 / 0.63 / 0.68 / 0.81	0 of 18
KLGQMTAIESRMLNSVA	QMDTRES	QQYHRLPLS	0.24 / 0.57 / 0.23 / 0.21 / 0.29 / 0.59	0 of 18
KSSQSWRDESRNKNSVA	WASTHSL	QQYHRLPLS	n.d. / n.d. / n.d. / n.d. / n.d. / n.d.	0 of 18
KLSQEMEYESRNPNSVA	QASERCS	QQYHRLPLS	-0.09 / -0.26 / -0.26 / -0.29 / -0.27 / -0.11	1 of 18 (2.95)
KSSQSVLYESRNKNSVA	RASVRLD	QQYHRLPLS	n.d. / 1.32 / 1.65 / 0.85 / 0.07 / 2.03	0 of 18
KLVQHHDYESRNKNNVA	QASQREQ	QQYHRLPLS	0.09 / -0.07 / -0.08 / -0.22 / -0.20 / -0.06	0 of 18
KSVQSVLYESRNKNSVA	WASTRSS	QQYHRLPLS	n.d. / n.d. / n.d. / n.d. / n.d. / n.d.	0 of 18
TLVDWIQGGTWAKKNVA	DEQTRMV	QQYYRLPLS	1.86 / n.d. / 1.06 / 1.41 / n.d. / 1.36	0 of 18
KSSQSVLYEFTNKNSVA	WASTRES	QQYHMLPLS	1.85 / n.d. / n.d. / 1.65 / n.d. / 2.32	0 of 18
MISDLTMYGSRNQNSVA	DLSTRGS	QQYHRLPLS	0.06 / 0.06 / -0.08 / 0.30 / -0.04 / 0.25	2 of 18 (2.68)
KSSQSVLYESLNKNSVA	HASTRND	QQYHRLPLS	0.75 / 0.37 / 0.45 / 0.44 / 0.37 / 0.65	0 of 18
KIQQSMLYESRNSNSVA	NASTRMD	QQYHRLPLM	0.03 / 0.29 / 0.31 / 0.06 / 0.06 / 0.38	2 of 18 (2.37)
KIYQGINTHLGAHSSIA	QEETRLQ	QQYAHLPLS	0.92 / 0.98 / 0.77 / 0.68 / 0.77 / 0.67	2 of 18 (2.70)
KASQSVLQPSRNKNSVA	QASTRES	QQYHRLPLS	0.23 / 0.28 / 0.54 / 0.22 / 0.13 / 0.39	0 of 18
QLSMLTGHVSMSKNNVA	EMETRLN	QQYDRLPLS	1.21 / 0.68 / 0.91 / 1.09 / 0.89 / 0.89	1 of 18 (2.33)

The last 2 entries again:

CDR-L1	CDR-L2	CDR-L3	log10 Kd (nM) by replicate	empty controls
KASQSVLQPSRNKNSVA	QASTRES	QQYHRLPLS	0.23 / 0.28 / 0.54 / 0.22 / 0.13 / 0.39	0 of 18
QLSMLTGHVSMSKNNVA	EMETRLN	QQYDRLPLS	1.21 / 0.68 / 0.91 / 1.09 / 0.89 / 0.89	1 of 18 (2.33)

The range of this assay differs from that of the first round, and the authors advise against merging the two.
Three control strains display no target. For all light chain designs, 4% of the pairings with them gave a signal, with a median of 2.64 and one signal in twenty below 1.59, so weak values seen in few replicates may be background. Also given: how often the same scFv was detected with the empty control strains, with their mean in brackets.
The parent sequence was in this pool as ten entries: three were never detected, three once, and four in most replicates, with averages from 0.34 to 2.37.
In the paper, a design with two or fewer of six values counts as a poor binder.